# Laboratory results as given in US20020152479A1, “Car modulators: screening and treatment of hypercholesterolemia” (priority 2000, published 2002).
# Amino acid sequences for entries named in this document (tags omitted). Residues count along the entry.
# UniProt O35627, whole entry: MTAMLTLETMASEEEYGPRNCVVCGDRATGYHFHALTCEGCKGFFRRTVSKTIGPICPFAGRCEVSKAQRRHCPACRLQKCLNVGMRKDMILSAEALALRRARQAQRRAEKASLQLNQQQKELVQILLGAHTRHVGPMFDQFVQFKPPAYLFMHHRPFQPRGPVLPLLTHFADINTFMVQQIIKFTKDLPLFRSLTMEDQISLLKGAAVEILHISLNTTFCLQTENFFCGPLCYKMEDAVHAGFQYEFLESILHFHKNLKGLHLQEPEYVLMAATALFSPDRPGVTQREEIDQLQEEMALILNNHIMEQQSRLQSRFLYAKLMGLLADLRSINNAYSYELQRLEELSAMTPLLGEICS
# UniProt O35627, 86-358 limits assumed: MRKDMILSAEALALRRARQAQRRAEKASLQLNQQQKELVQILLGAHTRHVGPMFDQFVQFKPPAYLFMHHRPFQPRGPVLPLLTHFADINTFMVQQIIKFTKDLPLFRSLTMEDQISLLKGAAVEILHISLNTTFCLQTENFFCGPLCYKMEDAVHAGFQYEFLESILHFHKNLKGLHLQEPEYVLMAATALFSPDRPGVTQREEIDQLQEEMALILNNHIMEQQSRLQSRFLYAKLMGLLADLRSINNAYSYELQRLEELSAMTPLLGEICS
# UniProt Q14994, 1-348 isoform 2: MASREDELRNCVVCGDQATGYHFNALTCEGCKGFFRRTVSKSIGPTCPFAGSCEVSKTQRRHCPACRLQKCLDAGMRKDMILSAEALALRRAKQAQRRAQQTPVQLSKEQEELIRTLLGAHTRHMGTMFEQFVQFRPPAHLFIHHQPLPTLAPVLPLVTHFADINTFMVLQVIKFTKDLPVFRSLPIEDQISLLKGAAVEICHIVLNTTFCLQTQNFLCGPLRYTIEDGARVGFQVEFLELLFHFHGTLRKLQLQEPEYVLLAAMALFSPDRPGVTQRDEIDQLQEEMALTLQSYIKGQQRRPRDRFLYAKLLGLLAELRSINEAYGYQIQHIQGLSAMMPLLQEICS
# UniProt Q14994, 76-348 isoform 2 limits assumed: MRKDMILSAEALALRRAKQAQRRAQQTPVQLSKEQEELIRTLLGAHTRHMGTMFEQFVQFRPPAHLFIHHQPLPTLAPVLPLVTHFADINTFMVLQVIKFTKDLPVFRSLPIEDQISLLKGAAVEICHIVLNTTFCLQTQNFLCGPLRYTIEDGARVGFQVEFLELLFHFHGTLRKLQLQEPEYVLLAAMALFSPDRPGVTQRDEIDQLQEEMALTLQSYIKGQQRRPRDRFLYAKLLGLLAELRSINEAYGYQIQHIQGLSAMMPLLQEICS
# Experiments:
# CARβ = CARβ (Mus musculus, UniProt O35627); assay: RARE-luciferase reporter gene assay in CV-1 cells with pCMV-CARβ; type: cell-based; conditions: 10 μM compound, 50 ng pCMV-CARβ
# CARα = CARα (Homo sapiens, UniProt Q14994); assay: RARE-luciferase reporter gene assay in CV-1 cells with pCMV-CARα; type: cell-based; conditions: 10 μM compound, 50 ng pCMV-CARα
# [1] = biological target: GST-CARβ ligand binding domain fusion protein (Mus musculus, UniProt O35627); assay: Peptide sensor fluorescence polarization assay, GST-CARβ ligand binding domain; conditions: read-out: GST-CARβ EC50; half-maximal concentration of stimulation of peptide sensor assay signal
# [2] = biological target: GST-CARα ligand binding domain fusion protein (Homo sapiens, UniProt Q14994); assay: Peptide sensor fluorescence polarization assay, GST-CARα ligand binding domain with rhodamine-[…] (SRC-1 peptide); conditions: read-out: GST-CARα EC50; half-maximal concentration of stimulation of peptide sensor assay signal
smiles,measurement,setting,value
CCOC(=O)N1C2CCC1CC(OC(=O)C(O)(c1ccccc1)c1ccccc1)C2 (stereo not shown),"CMV-CARβ, fold increase in normalized luciferase activity over DMSO control",CARβ,1.94
same,"CMV-CARα, fold increase in normalized luciferase activity over DMSO control",CARα,1.07
same,EC50,[1],15.5 nM
same,EC50,[2],257 nM
